Experiments:
Lewis Lung Cancer (LLC) = test: NIR detection of flank tumors and pulmonary metastases in the LLC mouse model
[1] = system: 4T1 breast cancer, TC1 lung cancer, EL4 thymoma, AE17 mesothelioma, AKR esophageal cancer flank tumors; test: NIR labeling of syngeneic flank tumors in mice with systemic ICG (tissue spectrometer); conditions: 7.5 mg/kg ICG via tail vein, next day; surrounding tissue and 12 organs

CC1(C)C(/C=C/C=C/C=C/C=C2\N(CCCCS(=O)(=O)[O-])c3ccc4ccccc4c3C2(C)C)=[N+](CCCCS(=O)(=O)[O-])c2ccc3ccccc3c21.[Na+] [ICG, indocyanine green]
mean and standard deviation tumor fluorescence, flank tumors (Lewis Lung Cancer (LLC); LLC flank tumors, 7.5 mg/kg ICG via tail vein): 53,290±2668 au | mean tumor fluorescence in early small deposits under 1 mm (Lewis Lung Cancer (LLC); pulmonary metastases): 39,923±4577 au | mean fluorescence from surrounding normal tissues and organs [1]: 4863±1254 au

Source: patent US20150030542A1, “METHODS FOR MEDICAL IMAGING” (priority 2013, published 2015)
